Mito fusion act: mitochondrial division inhibition or fusion activation; S. cerevisiae fusion-defective mutant growth rescue, CellTiterGlo 48 h; Potency, µM (titrated, usually from 46.1 µM), actives largely listed as activators; 320,000 compounds, 0.23% hits; further: nearly all actives have a fitted effect of over 45% in size
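Temperature-sensitive fusion-defective S. cerevisiae (e.g. fzo1-1, mgm1-5) were grown with compound in YPEG medium (3% ethanol, 3% glycerol) for 48 hours at 37C. Growth rescue was measured as viability by CellTiterGlo luminescence after 10 minutes at ambient.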
miR-21 reporter: miR-21 reporter, rising signal | HeLa miR-21 FLuc reporter, luciferase, 48 h | Potency, µM (highest dose often 38.3 µM) | 340,000 tested, under 10 active | AID 2288; active = well fitted rising curve with a large enough effect; inconclusive = small, poorly fitted or top-dose-only effect; inactive = no such curve, though single readings can be large or run the other way;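 further: miR-21 action dims this reporter so a rising signal means less miR-21 action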
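Compounds were titrated across several concentrations (up to approximately 40 uM) and incubated 48 hours with HeLa miR-21-FLuc reporter cells (miR-21 target sequence downstream of FLuc, endogenous miR-21). Readout was firefly luciferase luminescence after lytic detection reagent.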
A549 viability: kills or reduces viability of A549 cells in Nrf2 counter-screen; A549 ARE-Fluc cells, CellTiter-Fluor viability, 18-24 h; Potency, µM (series often up to 46 µM), usual class: inhibitors; 390,000 compounds, 0.16% hits; AID 504648
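A549 ARE_Fluc cells in 5% FBS OPTI-MEM were exposed to compounds in concentration-response for 18-24 h at 37 deg C. Viability was read by CellTiter-Fluor fluorescence (Ex 405/Em 525) after 30 min, before the luciferase read.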
Nrf2 inh: blocks Nrf2 signaling; 360,000 compounds, 2.1% hits; Potency, µM (highest dose often 46 µM), most hits filed as inhibitors; A549 ARE-Fluc reporter, luciferase luminescence, 18-24 h; further: nearly all actives have a fitted effect of over 60% in size
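Quantitative HTS in A549 cells stably bearing an antioxidant response element-firefly luciferase construct. Inhibition of Nrf2-driven transcription was scored by luminescence after 18-24 h of compound exposure at 37 °C.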
Nrf2 ARE act: activates Nrf2 signaling; AREc32 ARE-luciferase reporter (MCF7-derived line), luminescence, 24 h; Potency, µM (top dose mostly 46.1 µM), actives largely listed as activators; 410,000 compounds, 0.31% hits; further: nearly all actives have a fitted effect of over 65% in size
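AREc32_Fluc, 1000 cells/well, OPTI-MEM + 5% FBS, o/n 37 deg C 5% CO2; 23 nL cpd by pin tool, 24 hr; Steady-Glo 30 min RT, luminescence.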
Hits are given with their value; i = inactive; ? = inconclusive; nt = no result; ! = not active in a repeat; [ ] = another dose, or the depositor's remark. Only some compounds are listed: those with a hit (about 2.3% of all), similar ones and a draw of the others. Unless noted, the call rests on the fitted dose curve; in most records, active means well fitted curve in the direction sought with a large enough effect; inconclusive means small, poorly fitted or top-dose-only effect, or another doubt; inactive means no such curve, though single readings can be large; an effect the other way counts as inactive or inconclusive.

SMILES	Mito fusion act	miR-21 reporter	A549 viability	Nrf2 inh	Nrf2 ARE act
CCOc1cccc(CC(=O)NCc2ccc3c(c2)CCN3C(=O)c2cccc(C)c2)c1OCC	nt	?	i	21µM	i
CCOc1ccc(CCNC(=O)c2ccc(-n3c(C)cc4c3CCCC4)cc2)cc1OCC	nt	i	i	i	?
CCOc1ccc(CCNC(=O)c2cc3c(-c4ccc(OC)c(OC)c4)nn(C)c3s2)cc1OCC	nt	i	i	13µM	i
COc1ccc(C(=O)Nc2ccc(S(=O)(=O)N(Cc3ccccc3)c3ccccc3)cc2)cc1	nt	?	i	7.3µM	i
CCOc1ccc(NC(=O)c2ccc(NC(=O)COC(=O)Cc3ccccc3)cc2)cc1	i	i	i	?	i
Cc1ccc(-c2cc(-c3ccccc3)cc(-c3ccccc3)[n+]2-c2ccccc2)cc1	i	nt	?	18µM	i
Cc1ccsc1C(=O)C1CCCN(Cc2cnc(N3CCOCC3)s2)C1 (stereo not given)	i	i	?	18µM	i
Cc1ccsc1C(=O)C1CCCN(Cc2cnc(N(C)C)s2)C1 (stereo not given)	i	i	nt	nt	nt
CCOc1ccc(C(=O)Nc2cccc(C(=O)OCc3cc(=O)n4nc(C5CC5)sc4n3)c2)cc1	nt	i	i	nt	i
Nc1ccc(CCN2CCN(c3cccc(C(F)(F)F)c3)CC2)cc1	9.2µM	nt	i	?	i
Nc1ccc(CCN2CCCC2)cc1	i	i	i	i	i
CN1C2CCC1/C(=C/c1ccccn1)C(=O)/C2=C\c1ccccn1	i	?	7.3µM	5.8µM	i
Cc1ccc(Cn2c(=O)n(CCCCC(=O)NCc3ccccc3Cl)c(=O)c3ccccc32)cc1	nt	i	i	?	i
CN(C)C(=O)Oc1cccc([N+](C)(C)C)c1	i	i	i	6.5µM!	i
CC(C)Oc1ccc(CNC(=O)C2CCCN(S(=O)(=O)c3ccc4c(ccn4C)c3)C2)cc1 (stereo not given)	nt	?	i	nt	i
Cc1ccccc1N1C(=O)NC(=O)/C(=C\c2cc(Br)c(N3CCOCC3)o2)C1=O	i	i	23µM	16µM	i
Cc1ccccc1N1C(=O)NC(=O)/C(=C/c2ccc(N3CCOCC3)o2)C1=O	i	i	i	i	i
CC(C)C(=O)Nc1ccc([N+](=O)[O-])c(C(F)(F)F)c1	15µM!	i	i	?	i
O=P(Oc1ccccc1)(Oc1ccccc1)C(Nc1ccccc1)c1ccccc1 (stereo not given)	i	i	i	21µM	i
CCc1ccc(Nc2nc3c(S(=O)(=O)c4ccc(C)cc4)nnn3c3ccsc23)cc1	nt	i	i	?	i
COc1cc2[nH]c(=O)n(CCCCCC(=O)N3CCN(c4cccc(C(F)(F)F)c4)CC3)c(=O)c2cc1OC	nt	?	i	i[9.27 µM]	i
Fc1ccc(C(OCCN2CCCC2)c2ccc(F)cc2)cc1	i	i	i	i	i
Fc1ccc(C(OCCN2CCN(CCCc3ccccc3)CC2)c2ccc(F)cc2)cc1	i	nt	?	23µM	i
c1ccc(CCCN2CCN(CCOC(c3ccccc3)c3ccccc3)CC2)cc1	7.3µM	nt	i	i	i
Clc1ccc(CCC(Cn2ccnc2)Sc2c(Cl)cccc2Cl)cc1 (stereo not given)	0.56µM	nt	i	?	i
SMILES	Mito fusion act	miR-21 reporter	A549 viability	Nrf2 inh	Nrf2 ARE act
Cc1ccc(CN(C)C(=O)c2cccc(S(=O)(=O)N3CCN(c4ccccc4)CC3)c2)cc1	nt	nt	i	?	i
Cc1ccc2c(c1)c(C1=c3ccccc3=NC1=O)c(O)n2C	i	i	i	?	11µM
CCCCCCCCCCCCCC(=O)O[C@@H]1[C@@H](C)[C@@]2(O)[C@@H](C=C(CO)C[C@@]3(O)C(=O)C(C)=C[C@@H]23)C2C(C)(C)[C@@]21OC(C)=O (stereo not given in full)	16µM	nt	nt	nt	nt
Cc1ccc(-c2nc3c(=O)n(C)c(=O)nc-3n(C)n2)cc1	nt	nt	2.9µM	3.3µM	nt
Cn1ncnc2c(=O)n(C)c(=O)nc1-2	i	?	0.46µM	0.18µM	i
CCc1ccc(NC(=O)CN2C(=O)C3(SCC(=O)N3c3ccc(F)c(F)c3)c3ccccc32)cc1 (stereo not given)	nt	?	i	?	i
O=c1oc2cccnc2n1CCS(=O)(=O)c1ccc(F)cc1	i	i	i	i	?
O=C(c1ccc(N2CCCCCC2)c([N+](=O)[O-])c1)N1CCC2(CC1)OCCO2	i	i	?	23µM	i

Bioassay records from PubChem.
